Screening data from PubChem BioAssay.
PI4K2A inh: inhibitors of human PI4K2A; Q9BTU6; purified PI4K2A, ADP-Glo luminescence, 1 h; active compounds read low; activity change, negative = inhibition, % at 76.9 µM; hit rate 0.13% among 420,000; AID 1346378; in the data active = activity change below about -50%; inconclusive = mostly about -30% to -49%;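 note: -100% = wells without enzyme as full effect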
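PI4K2A activity was measured by ADP-Glo luminescence: enzyme (4 ug/mL stock) and phosphatidylinositol (1.2 mM stock) in Tris pH 7.5/MgCl2/EGTA/Triton X-100 buffer were reacted with ATP (300 microM stock) for one hour at ambient temperature.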
GALK inh: blocks human galactokinase activity; P51570; Purified GALK, Kinase-Glo residual ATP luminescence; Potency, µM (titrated, usually from 57.5 µM), for the others: at the top dose activity change, negative = inhibition, hits mostly inhibitors; hit rate 0.007% among 270,000; note: potency is the fitted concentration of half-maximal effect; % is set by controls: 0 for no effect and ±100 for the full control effect
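Galactose (100 uM) and ATP (35 uM) were turned over by 5 nM GALK for 1 h at RT. Kinase-Glo Plus then converted the remaining ATP into a luminescent signal.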
Nrf2 block: blocks Nrf2 signaling | A549 ARE-Fluc reporter, luciferase luminescence, 18-24 h | Potency, µM (doses to about 46 µM), for inactives: at the top dose activity change, negative = inhibition, most hits filed as inhibitors | hit rate 2.1% among 360,000; note: potency is the fitted concentration of half-maximal effect; % is set by controls: 0 for no effect and ±100 for the full control effect; nearly all actives have a fitted effect of over 60% in size
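Concentration-response testing used A549 ARE_Fluc cells at 5000 cells/well. Following an 18-24 h compound incubation, viability was read by fluorescence (Ex 405/Em 525) and luciferase output by luminescence.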
A549 viability: A549 cytotoxicity, counter-screen for Nrf2 inhibitors; hit rate 0.16% among 390,000; A549 ARE-Fluc cells, CellTiter-Fluor viability, 18-24 h; Potency, µM (titrated, usually from 46 µM), for the others: at the highest dose activity change, negative = cytotoxicity, most hits filed as inhibitors; note: potency is the fitted concentration of half-maximal effect; % is set by controls: 0 for no effect and ±100 for the full control effect
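A549 ARE_Fluc cells in 5% FBS OPTI-MEM were exposed to compounds in concentration-response for 18-24 h at 37 deg C. Viability was read by CellTiter-Fluor fluorescence (Ex 405/Em 525) after 30 min, before the luciferase read.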
Nrf2 activator: activates Nrf2 signaling | Potency, µM (titrated, usually from 46.1 µM), inactives show at the top dose activation, usual class: activators | hit rate 0.31% among 410,000 | AREc32 ARE-luciferase reporter (MCF7-derived line), luminescence, 24 h; note: potency is the fitted concentration of half-maximal effect; % of control where 0% means no effect; nearly all actives have a fitted effect of over 65% in size
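Steps: seed AREc32_Fluc cells (1000/well, 5% FBS OPTI-MEM); incubate overnight at 37 deg C; add 23 nL compound; incubate 24 hr; add Steady-Glo; hold 30 min RT; read luminescence.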
miR-21 FLuc: miR-21 reporter, rising signal | AID 2288 | HeLa miR-21 FLuc reporter, luciferase, 48 h | 340,000 tested, under 10 active | Potency, µM (titrated, usually from 38.3 µM), for the others: at the top dose reporter change, positive = more light; active = well fitted rising curve with a large enough effect; inconclusive = small, poorly fitted or top-dose-only effect; inactive = no such curve, though single readings can be large or run the other way;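 also: % of control where 0% means no effect; miR-21 action dims this reporter so a rising signal means less miR-21 action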
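Compounds were titrated across several concentrations (up to approximately 40 uM) and incubated 48 hours with HeLa miR-21-FLuc reporter cells (miR-21 target sequence downstream of FLuc, endogenous miR-21). Readout was firefly luciferase luminescence after lytic detection reagent.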
Starred values were filed as active, the others as inactive; ? = inconclusive; . = no result given; ! = a repeat was not active; [ ] = dose if it differs, or a comment. Rows were chosen to be rich in hits. Some 2.2% of all compounds tested hit in one or more screens of this group. Unless noted, calls come from the whole dose curve; as a rule, active = well fitted curve in the direction sought with a large enough effect; inconclusive = small, poorly fitted or top-dose-only effect, or another doubt; inactive = no such curve, though single readings can be large; an effect the other way counts as inactive or inconclusive.

SMILES	PI4K2A inh	GALK inh	Nrf2 block	A549 viability	Nrf2 activator	miR-21 FLuc
Cn1cccc1CC(=O)NN=C/C=C\c1ccco1	-52.2*	.	.	.	.	.
O=C(N/N=C\C=C\c1ccco1)c1cncc(Br)c1	-10.6	-1.8%	-22.6%	-2.7%	12.6µM*	-0.2%
O=C(Cc1cccs1)N/N=C/C=C/c1ccco1	-14.6	.	13.3%	12.1%	12.6µM*	-55.9%
O=C(CN1CCN(Cc2ccccc2)CC1)N/N=C\C=C/c1ccco1	-6.1	1.9%	?	-5.1%	6.31µM*	-6.7%
FC(F)(F)c1cc(-c2ccc(Cl)cc2)nc(NCc2cccnc2)n1	6.9	-0.9%	14.6µM*	6.4%[1.84 µM]	3.0%	23.4%
COc1ccc(-c2cc(C(F)(F)F)nc(NCc3ccc(Cl)cc3)n2)cc1	-6.6	.	-7.3%[9.27 µM]	-10.0%	0.3%	10.5%
CC(=O)OCC(=O)[C@@]12N=C(C)O[C@@H]1C[C@H]1[C@@H]3CCC4=CC(=O)C=C[C@]4(C)[C@H]3[C@@H](O)C[C@@]12C	4.1	.	.	.	.	.
NNc1nc(-c2ccccc2)nc2sc3c(c12)CCCC3	-0.5	-1.3%	?	8.3%	1.41µM*	-68.6%
NNc1nc2sc3c(c2c(=O)n1Cc1ccccc1)CCC3	-6.6	-0.5%	10.0%	1.8%	0.3%	-17.2%
CC(C)(C)C1CCc2c(sc(N)c2C(N)=O)C1 (stereo not drawn)	-6.6	5.5%	-27.4%	0.3%	4.5%	20.0%
CCC(C)(C)C1CCc2c(sc(N)c2C(N)=O)C1 (stereo not drawn)	3.9	-1.7%	18.4µM*	7.9%	3.1%	16.4%
COc1cc(O)c([C@@H](CC(=O)N2CC(C)CC(C)C2)c2ccc3c(c2)OCO3)c(OC)c1 (stereo partly drawn)	5.5	.	.	.	.	.
Cc1cc(-c2ccc(S(=O)(=O)Nc3ccccc3C)cc2)on1	-2.7	.	?	-0.4%	-0.1%	22.1%
Cc1ccc(NS(=O)(=O)c2ccc(-c3cc(C)no3)cc2)c(Br)c1	-2.5	.	23.1µM*	-0.1%	0.4%	21.8%
Cc1cc(-c2ccc(S(=O)(=O)Nc3ccc(Cl)cc3C)cc2)on1	-6.3	.	20.6µM*	-8.7%	-0.2%	26.8%
COC(=O)[C@]12C[C@H](CC(=O)NCC3CCCCC3)C(=O)N(Cc3ccco3)C1=C[C@H](COCc1ccccc1)O[C@@H]2C	0.9	.	.	.	.	.
C/C(=N\NC(=O)c1c(Cl)c(C)nn1C)c1cccc(NC(=O)c2cccc(F)c2)c1	0.6	5.3%	9.2µM*	0.0%	3.7%	-10.5%
C/C(=N\NC(=O)c1c(Cl)c(C)nn1C)c1cccc(NC(=O)COc2ccccc2)c1	0.8	2.6%	-13.5%	-5.5%	3.2%	-30.8%
Cc1ccc(-c2nnc(NC(=O)c3ccc([N+](=O)[O-])o3)o2)c(C)c1	1.4	.	?	?	7.08µM*	.
Cc1cccnc1NC(=O)c1ccc([N+](=O)[O-])o1	-0.1	2.5%	?	-7.8%	22.4µM*	0.7%
COc1ccc(C2C(C(=O)Nc3ccc(C)c(C)c3)CCC(=O)N2c2ccc(OC)cc2)cc1 (stereo not drawn)	0.1	.	.	.	.	.
Cn1nnnc1Sc1ncnc2scc(-c3ccc4ccccc4c3)c12	.	.	5.3%	?	.	.
Cn1nnnc1Sc1ncnc2scc(-c3cccc(F)c3)c12	0.6	.	?	?	?	.
Cn1nnnc1Sc1ncnc2scc(-c3cccc(Cl)c3)c12	.	.	23.1µM*	-17.6%	.	.
Cn1nnnc1Sc1ncnc2scc(-c3ccc(-c4ccccc4)cc3)c12	2.5	.	13.8%	-4.6%	?	.
COc1cccc(-c2csc3ncnc(Sc4nnnn4C)c23)c1	-2.1	.	25.9µM*!	?	?	.
Cn1nnnc1Sc1ncnc2scc(-c3ccc(C#N)cc3)c12	7.2	.	16.4µM*	?	-2.0%	.
COc1ccc(C2=Nn3c(nnc3-c3ccc(OC)cc3OC)SC2)c(OC)c1	.	.	8.1%	-9.7%	.	.
O=S(=O)(NCC1CCN(c2ccc(S(=O)(=O)N3CCOCC3)cc2)CC1)c1ccc(F)cc1	1.7	8.7%	20.6µM*	?	0.7%	26.1%

Complete entries, looked up by structure. Screens in order: PI4K2A inh, GALK inh, Nrf2 block, A549 viability, Nrf2 activator, miR-21 FLuc
Shown for COc1ccc(-c2cc(C(F)(F)F)nc(NCc3ccc(Cl)cc3)n2)cc1 → -6.6, ., -7.3%[9.27 µM], -10.0%, 0.3%, 10.5%
Shown for Cn1nnnc1Sc1ncnc2scc(-c3ccc(-c4ccccc4)cc3)c12 → 2.5, ., 13.8%, -4.6%, ?, .
Shown for C/C(=N\NC(=O)c1c(Cl)c(C)nn1C)c1cccc(NC(=O)COc2ccccc2)c1 → 0.8, 2.6%, -13.5%, -5.5%, 3.2%, -30.8%

Given with values under each structure: entries from further up.
Below each compound – PI4K2A inh, GALK inh, Nrf2 block, A549 viability, Nrf2 activator, miR-21 FLuc
Cc1cccnc1NC(=O)c1ccc([N+](=O)[O-])o1
    -0.1, 2.5%, ?, -7.8%, 22.4µM*, 0.7%
COc1ccc(C2C(C(=O)Nc3ccc(C)c(C)c3)CCC(=O)N2c2ccc(OC)cc2)cc1 (stereo not drawn)
    0.1, ., ., ., ., .
